Columns and labels:
[1] = target: T1, human IGF-1R on human tumor cells (A549, BxPC3, TC-71) (human, UniProt P08069 31-1320); assay: FACS competition with labeled R1507 on TC-71 cells; ratio against OA-Ak18-scFab-GA201
T1 construct: Endogenous receptor on human tumor cell lines; A549 and BxPC3 also express EGFR; TC-71 express IGF-1R only
Experimental: (§1) Human tumor cells (A549 or TC-71, 2×10^5 cells/well) diluted in ice-cold buffer (PBS+2% FCS, Gibco) were added to a mixture of labeled monospecific IGF-1R antibody R1507 (final concentration of 1 μg/ml) and different concentrations of unlabeled IGF1R-EGFR bispecific antibodies or unlabeled monospecific antibodies or Fab fragments as controls (final titration range of 100 to 0.002 μg/ml) in a 96-well microtiter plate. The mixture was incubated on ice for 45 minutes. Cells were washed 2 times by addition of 150-200 μl buffer (PBS+2% FCS) and subsequent centrifugation (300 g; 5 min, 4° C.). The cells were then resuspended in 200 μl fixation buffer (1× CellFix, BD #340181) containing 6.25 μl/ml 7-AAD (BD #559925) and incubated for 10-20 min on ice to allow for fixation and penetration of 7-AAD in dead cells. Fluorescent signal of the samples was analyzed by FACS and IC50 values are calculated.
(§2) In this setting, were only IGF-1R but not EGFR is expressed 1+1 bispecific antibodies can only bind to IGF-1R with one binding arm, thus differences in IGF-1R affinity might become more crucial.

Chains of the proteins cited; added tags and fusions are not shown. Residues count along the entry.
UniProt P08069, 31-1320 limits assumed: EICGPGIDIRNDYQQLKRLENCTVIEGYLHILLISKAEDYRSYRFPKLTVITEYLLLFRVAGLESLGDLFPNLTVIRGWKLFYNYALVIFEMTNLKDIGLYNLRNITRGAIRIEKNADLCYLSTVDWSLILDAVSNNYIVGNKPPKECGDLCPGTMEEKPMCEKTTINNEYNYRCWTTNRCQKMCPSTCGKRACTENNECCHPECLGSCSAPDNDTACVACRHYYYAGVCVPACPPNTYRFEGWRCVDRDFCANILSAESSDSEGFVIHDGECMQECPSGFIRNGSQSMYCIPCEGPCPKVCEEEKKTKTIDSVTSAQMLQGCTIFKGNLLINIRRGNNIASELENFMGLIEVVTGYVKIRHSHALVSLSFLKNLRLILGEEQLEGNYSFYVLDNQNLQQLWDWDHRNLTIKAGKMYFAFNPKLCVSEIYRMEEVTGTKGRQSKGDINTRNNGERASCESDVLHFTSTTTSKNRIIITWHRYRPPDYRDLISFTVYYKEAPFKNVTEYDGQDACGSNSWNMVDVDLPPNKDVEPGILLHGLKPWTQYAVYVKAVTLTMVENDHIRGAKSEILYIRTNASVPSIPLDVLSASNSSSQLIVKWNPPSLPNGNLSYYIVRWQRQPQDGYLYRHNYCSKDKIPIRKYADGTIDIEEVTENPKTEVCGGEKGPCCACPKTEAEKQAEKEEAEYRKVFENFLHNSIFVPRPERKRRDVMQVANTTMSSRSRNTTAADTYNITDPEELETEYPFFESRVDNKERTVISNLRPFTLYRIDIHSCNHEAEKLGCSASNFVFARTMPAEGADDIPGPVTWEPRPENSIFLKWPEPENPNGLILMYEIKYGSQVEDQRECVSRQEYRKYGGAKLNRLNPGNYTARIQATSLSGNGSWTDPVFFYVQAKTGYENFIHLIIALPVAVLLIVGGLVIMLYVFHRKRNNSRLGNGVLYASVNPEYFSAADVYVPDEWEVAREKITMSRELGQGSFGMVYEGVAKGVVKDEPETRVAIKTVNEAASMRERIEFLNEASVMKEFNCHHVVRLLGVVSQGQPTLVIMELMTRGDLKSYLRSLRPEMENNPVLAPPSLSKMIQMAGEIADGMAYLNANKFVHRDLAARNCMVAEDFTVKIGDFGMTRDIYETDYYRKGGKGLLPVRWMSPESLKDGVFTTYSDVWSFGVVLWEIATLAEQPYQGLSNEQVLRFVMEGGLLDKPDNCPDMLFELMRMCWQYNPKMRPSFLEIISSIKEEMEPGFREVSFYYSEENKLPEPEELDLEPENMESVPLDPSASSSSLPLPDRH
UniProt P08637, 17-208 limits assumed: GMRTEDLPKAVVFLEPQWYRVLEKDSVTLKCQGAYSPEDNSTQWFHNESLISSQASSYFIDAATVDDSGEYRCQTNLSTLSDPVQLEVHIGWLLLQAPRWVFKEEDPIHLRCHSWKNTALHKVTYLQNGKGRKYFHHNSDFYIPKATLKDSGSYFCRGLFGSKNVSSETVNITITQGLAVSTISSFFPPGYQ

[2] = target: T1, human IGF-1R on human tumor cells …; assay: FACS competition with labeled R1507 on TC-71 cells (express IGF-1R, not EGFR)
Experimental: as §1, §2

[3] = target: T1, human IGF-1R on human tumor cells …; assay: FACS competition with labeled R1507 on A549 cells (express IGF-1R and EGFR)
Experimental: as §1, §2

[4] = target: T1, human IGF-1R on human tumor cells …; assay: cell-based or functional assay
[5] = target: T1, human IGF-1R on human tumor cells …; assay: FACS competition with labeled R1507 on A549 cells; ratio against OA-Ak18-scFab-GA201
Experimental: as §1, §2

[6] = target: T1, human IGF-1R on human tumor cells …; assay: cell-based or functional assay; remark: listed apart in the source
human Fc Gamma RIIIa [7] = target: T2, human Fc Gamma RIIIa (human, UniProt P08637 17-208, limits assumed); assay: SPR (Biacore), antibody captured on immobilised huHER1-ECD, FcgRIIIa as analyte, 25 C; WT (nonglycoengineered version)
T2 construct: The methods list human FcgRIIIa(V158) and huFcgRIIIa(F158) as analytes; also called FcgRIIIa; human FcgRIIIa

human Fc Gamma RIIIa [8] = target: T2, human Fc Gamma RIIIa; assay: SPR (Biacore), antibody captured on immobilised huHER1-ECD, FcgRIIIa as analyte, 25 C; glycoengineered (GE)

Row | Binder | fold better binding than OA-Ak18-scFab [1] | IC50 [2] | IC50 [3] | potency of IGF-1R inhibition against unmodified OA-Ak18-scFab-GA201, A549 [4] | potency of IGF-1R inhibition against unmodified OA-Ak18-scFab-GA201, BxPC3 [4] | potency of IGF-1R inhibition against unmodified OA-Ak18-scFab-GA201, TC-71 [4] | fold better binding than OA-Ak18-scFab [5] | Inhibition of IGF-1R phosphorylation (IC50) A549 [6] | Inhibition of IGF-1R phosphorylation (IC50) BxPC3 [6] | Inhibition of IGF-1R phosphorylation (IC50) TC-71 [6] | Kd (human Fc Gamma RIIIa [7]) | Kd (human Fc Gamma RIIIa [8])
1 | OA-F13B5-scFab-GA201 (bispecific antibody, human IgG1, kappa) heavy 1: not shown heavy 2: not shown light: DIQMTQSPSSLSASVGDRVTITCRASQGINNYLNWYQQKPGKAPKRLIYNTNNLQTGVPSRFSGSGSGTEFTLTISSLQPEDFATYYCLQHNSFPTFGQGTKLEIKRTVAAPSVFIFPPSDEQLKSGTASVVCLLNNFYPREAKVQWKVDNALQSGNSQESVTEQDSKDSTYSLSSTLTLSKADYEKHKVYACEVTHQGLSSPVTKSFNRGEC | 10 fold | 4.09 nM | 0.67 nM | 2 fold | 2 fold | 25 fold | ~2 fold | 0.1 nM | 0.07 nM | 0.08 nM | 33 nM | –
2 | OA-L31D11-scFab-GA201 (bispecific antibody, human IgG1, kappa) heavy 1: not shown heavy 2: not shown light: DIQMTQSPSSLSASVGDRVTITCRASQGINNYLNWYQQKPGKAPKRLIYNTNNLQTGVPSRFSGSGSGTEFTLTISSLQPEDFATYYCLQHNSFPTFGQGTKLEIKRTVAAPSVFIFPPSDEQLKSGTASVVCLLNNFYPREAKVQWKVDNALQSGNSQESVTEQDSKDSTYSLSSTLTLSKADYEKHKVYACEVTHQGLSSPVTKSFNRGEC | 25 fold | 1.59 nM | 0.39 nM | 4 fold | 6 fold | 50 fold | ~2 fold | 0.05 nM | 0.03 nM | 0.04 nM | 64 nM | –
3 | OA-F13B5-scFab-GA201-GE (bispecific antibody, human IgG1, kappa) heavy 1: not shown heavy 2: not shown light: DIQMTQSPSSLSASVGDRVTITCRASQGINNYLNWYQQKPGKAPKRLIYNTNNLQTGVPSRFSGSGSGTEFTLTISSLQPEDFATYYCLQHNSFPTFGQGTKLEIKRTVAAPSVFIFPPSDEQLKSGTASVVCLLNNFYPREAKVQWKVDNALQSGNSQESVTEQDSKDSTYSLSSTLTLSKADYEKHKVYACEVTHQGLSSPVTKSFNRGEC | – | – | – | – | – | – | – | – | – | – | – | 7.5 nM
4 | OA-L31D11-scFab-GA201-GE (bispecific antibody, human IgG1, kappa) heavy 1: not shown heavy 2: not shown light: DIQMTQSPSSLSASVGDRVTITCRASQGINNYLNWYQQKPGKAPKRLIYNTNNLQTGVPSRFSGSGSGTEFTLTISSLQPEDFATYYCLQHNSFPTFGQGTKLEIKRTVAAPSVFIFPPSDEQLKSGTASVVCLLNNFYPREAKVQWKVDNALQSGNSQESVTEQDSKDSTYSLSSTLTLSKADYEKHKVYACEVTHQGLSSPVTKSFNRGEC | – | – | – | – | – | – | – | – | – | – | – | 6.4 nM
